Results as given in PubChem BioAssay AID2023 (NMMLSC, 2009).
The list shows a part of the results, in another mix than the full data. The source made the active and inactive calls.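 Rule for the calls: active = GFP response vs DMSO above a set limit, about the screen mean plus 3 SD (cut at about 150% in these data); inconclusive = under 70 cell events counted for the yeast strain; inactive = the rest.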

Assay: modulators of LAP4-GFP expression in yeast, primary screen, S. cerevisiae, multiplex flow cytometry, MLPCN library (AID 2023)
Details: 3 h, at 10 µM, active compounds read high, median GFP as percent of DMSO wells

Compound	GFP response vs DMSO
CN(C(=O)Cc1ccc(Cl)c(Cl)c1)[C@@H]1CCCC[C@H]1N1CCCC1	inactive: 121%
CC(C)/C=N\N=C(\N)N[N+](=O)[O-]	inactive: 102%
O=[As](O)(c1ccccc1Br)c1ccccc1Br	inactive: 95.2%
CC1(CBr)Cn2c(nc3ccccc3c2=O)S1 (configuration not stated)	inactive: 103%
COc1ccccc1CNC(=O)COC(=O)C(O)(c1ccccc1)c1ccccc1	inactive: 98.5%
Clc1n[nH]nc1-c1nn[nH][15n]1	inactive: 96.9%
CC(C)(C)C(=O)NC(Sc1ncccn1)C(Cl)(Cl)Cl (configuration not stated)	inactive: 102%
CCC1=CC2Cc3nc4ccc(Cl)cc4c(N)c3C(C1)C2 (configuration not stated)	inactive: 94.4%
O=P1(Nc2ccccn2)COc2ccccc2OC1	inactive: 99.9%
CCOP(=O)(NC(=NC(C)c1ccccc1)NC(C)c1ccccc1)OCC (configuration not stated)	inactive: 87.5%
CN(CCCl)Cc1cc(Cl)c(NC2=NCCN2)c(Cl)c1	inactive: 115%
CCOP(=O)(Nc1ccc(C)cn1)OCC	inactive: 99.8%
Nc1cccc([As](=O)(O)c2ccccc2)c1	inactive: 89%
NS(=O)(=O)c1cccc(NC(=O)COC(=O)C(O)(c2ccccc2)c2ccccc2)c1	inactive: 96.9%
O=P1(Nc2ccc(Br)cn2)COc2ccccc2OC1	inactive: 94.7%
O=[As](O)(c1cccs1)c1cccs1	inactive: 94.6%
Cc1ccc(OCC(=O)OC2CN3CCC2CC3)cc1 (configuration not stated)	inactive: 98.8%
O=P1(Nc2ncccn2)COc2ccccc2OC1	inactive: 98.8%
CN(C)C1(CNC(=O)c2ccc(S(C)(=O)=O)cc2)CCCCC1	inactive: 94.3%
O=C(/C=C/c1ccccc1)OC1CN2CCC1CC2 (configuration not stated)	inactive: 101%
Cc1nn(-c2ccccc2)c2c1P(=O)(N1CCOCC1)N(C)C(c1ccccc1)=N2 (configuration not stated)	inactive: 102%
Cc1ccc(C(=O)OC2CN3CCC2CC3)cc1 (configuration not stated)	inactive: 107%
CC1CCC(C(C)C)C(OP(=O)(Nc2ccccn2)c2ccccc2)C1 (configuration not stated)	inactive: 102%
N#CCCN(C(=O)COC(=O)C(O)(c1ccccc1)c1ccccc1)c1ccc(F)cc1	inactive: 101%
CCOP1(=S)c2c(C)nn(CCC#N)c2N=C(c2ccc(F)cc2)N1C (configuration not stated)	inactive: 98.3%
CN(C(=O)Cc1ccccc1)[C@@H]1CC[C@]2(CCCO2)C[C@H]1N1CCCC1	inactive: 128%

Compound	GFP response vs DMSO
CN(C)C(=O)c1cc([N+](=O)[O-])cc2c1-c1c(cc([N+](=O)[O-])cc1[N+](=O)[O-])C2=O	inactive: 138%
O=[N+]([O-])c1ccc2c(c1)nnn2O	inactive: 103%
CN(C(=O)Cc1ccc(Cl)c(Cl)c1)[C@H]1CC[C@@]2(CCCO2)C[C@@H]1N1CCCC1	inactive: 108%
NC(=O)Nc1ccc([As](=O)(O)O)cc1	inactive: 104%
O=C(O)COc1ccc([As](=O)(O)O)cc1[N+](=O)[O-]	inactive: 116%
Nc1ccccc1[As](=O)(O)c1ccccc1	inactive: 98.4%
CCOP1(=S)c2c(C)nn(CCC#N)c2N=C(c2ccccc2F)N1C (configuration not stated)	inactive: 101%
O=P(Nc1nccs1)(c1ccccc1)c1nc2ccccc2s1 (configuration not stated)	active: 151%
O=P(Nc1nccs1)(Oc1ccccc1)Oc1ccccc1	inactive: 96.6%
CS(=O)(=O)c1cc([N+](=O)[O-])c2no[n+]([O-])c2c1	inactive: 115%
COc1cc(C2NCCC3(OCCO3)C2(C)C)cc(OC)c1OC (configuration not stated)	inactive: 92.1%
CCOP(=O)(Nc1cccc2ccccc12)OCC	inactive: 125%
Nc1cccc2c([As](=O)(O)O)cccc12	inactive: 96.5%
Cc1ccc(NCCc2c([N+](=O)[O-])cc([N+](=O)[O-])cc2[N+](=O)[O-])cc1	inactive: 101%
CCCOP(=S)(Nc1nc(N)cc(=O)[nH]1)OCCC	inactive: 97.2%
O=[As](O)(c1cccc(O)c1)c1cccc(O)c1	inactive: 91.2%
Cc1cccc(OCC(=O)OC2CN3CCC2CC3)c1 (configuration not stated)	inactive: 100%
O=C(OC1CN2CCC1CC2)c1ccc(Cl)cc1 (configuration not stated)	inactive: 96.5%
COc1cc(C(=O)NCC2(N3CCOCC3)CCCCC2)cc(Cl)c1OC(C)C	inactive: 96.8%
O=[As](O)(O)c1cccnc1	inactive: 106%
CS(=O)(=O)c1ccc(Cl)c(NC(=O)COC(=O)C(O)(c2ccccc2)c2ccccc2)c1	inactive: 100%
COc1ccc(N/C(=N/P(=O)(N2CCOCC2)N2CCOCC2)N2CCOCC2)cc1	inactive: 104%
COc1ccc2nc(NP(=O)(c3ccccc3)c3ccccc3)sc2c1	inactive: 111%
COc1cc(I)ccc1[As](=O)(O)O	inactive: 112%
Cc1c2c(nc3ccccc13)SC(C(Cl)Cl)C2 (configuration not stated)	inactive: 103%
O=C(OC1CN2CCC1CC2)C12CC3CC(CC(C3)C1)C2 (configuration not stated)	inactive: 109%

Compound	GFP response vs DMSO
Cc1cc(=O)[nH]c(N[N+](=O)[O-])n1	inactive: 94.2%
CCN(CC)C(=S)SC(NC=O)C(Cl)(Cl)Cl (configuration not stated)	inactive: 112%
CC(C)NC(=O)NP(=O)(Oc1ccccc1)Oc1ccccc1	inactive: 93.1%
O=[N+]([O-])c1cc([N+](=O)[O-])c(-c2ccn[nH]2)s1	inactive: 113%
ClCCSc1nnc(-c2cccnc2)o1	inactive: 88%
CC(C)c1ccc(OP(=O)(Nc2ccccn2)Oc2ccccc2F)cc1 (configuration not stated)	inactive: 106%
Cc1ccc(OP(=O)(Nc2ccc([N+](=O)[O-])cn2)Oc2ccc(C)cc2)cc1	inactive: 94%
Cc1ccc2nc3c(c(C)c2c1)CC(C(Cl)Cl)S3 (configuration not stated)	inactive: 98.1%
O=[As](O)(c1ccc(O)cc1)c1ccccc1O	inactive: 108%
C[As](=O)(O)c1cccc(C(=O)O)c1	inactive: 95%
COc1cc(C(=O)NCC2(N3CCOCC3)CCCCC2)ccc1OCC(C)C	inactive: 98.3%
Cc1cc(SC(NC=O)C(Cl)(Cl)Cl)ncn1 (configuration not stated)	inactive: 94.6%
O=P(Nc1ccccn1)(c1cccc2ccccc12)c1cccc2ccccc12	inactive: 88%
O=[N+]([O-])c1ccc(Nc2ccc(Oc3ccc([N+](=O)[O-])cc3[N+](=O)[O-])cc2)c([N+](=O)[O-])c1	inactive: 87.6%
Cc1cc(SC(NC(=O)c2ccccc2)C(Cl)(Cl)Cl)nc(C(C)C)n1 (configuration not stated)	inactive: 90.9%
CCOC(=O)Nc1ccc([As](=O)(O)O)c(O)c1	inactive: 92.4%
CCC(C)N(CC(C)C)C(=S)SC(NC(C)=O)C(Cl)(Cl)Cl (configuration not stated)	inactive: 99.5%
O=C(OC1CN2CCC1CC2)c1cccc([N+](=O)[O-])c1 (configuration not stated)	inactive: 97.6%
CCOC(=O)c1ccc(NC(=O)C(C)(CCl)SC)cc1 (configuration not stated)	inactive: 109%
O=C(COc1ccccc1)OC1CN2CCC1CC2 (configuration not stated)	inactive: 87.1%
O=C(Nc1ccncc1[N+](=O)[O-])c1ccc([N+](=O)[O-])cc1[N+](=O)[O-]	inactive: 103%
COP1(=S)c2c(C)nn(CCC#N)c2N=C(c2ccc(F)cc2)N1C (configuration not stated)	inactive: 105%
CC1CCN(C(=O)Oc2c(Cl)cc(Cl)c3cccnc23)CC1	inactive: 96%
CC(C)=N/N=C(\N)N[N+](=O)[O-]	inactive: 101%
CN(C)C(=O)OCCc1n(C)cc[n+]1C	inactive: 98.2%
CCN(/C(=N/P(=O)(N1CCOCC1)N1CCOCC1)N1CCOCC1)c1ccc(OC)cc1	inactive: 85.6%

Compound	GFP response vs DMSO
Nc1ccc([As](=O)(O)c2ccc(N)cc2)cc1	inactive: 106%
C[N+]1=C2C=CC=CC=C2SC12C([N+](=O)[O-])=CC([N+](=O)[O-])=C[C-]2[N+](=O)[O-] (configuration not stated)	active: 181%
Cc1ccc(NP(=O)(Oc2ccccc2)Oc2ccccc2)nc1	inactive: 95%
O=[N+]([O-])c1cc([N+](=O)[O-])c(CCNc2ccccc2)c([N+](=O)[O-])c1	inactive: 145%
CCc1nc2c(n1)c1c(non1O)c1c2no[n+]1[O-]	inactive: 106%
CC(=O)N1C2C3N(C(C)=O)C1C1N(C(C)=O)C(C(N1C(C)=O)N3C(C)=O)N2C(C)=O	inactive: 101%
O=[N+]([O-])c1cccc2n[nH]nc12	inactive: 96.9%
COc1ccc(C2=NCC(CBr)S2)cc1 (configuration not stated)	inactive: 92.7%
O=C(O)CNc1ccc([As](=O)(O)O)cc1	inactive: 89.2%
O=[N+]([O-])c1cccc(NC2=NCC(CBr)S2)c1 (configuration not stated)	inactive: 126%
O=[N+]([O-])c1ncn(CCn2ncnc2[N+](=O)[O-])n1	inactive: 103%
CC(C)(C)C(=O)NC(Sc1ccncn1)C(Cl)(Cl)Cl (configuration not stated)	inactive: 101%
O=C(Nc1cc([As](=O)(O)O)ccc1O)c1ccccc1	inactive: 80.5%
Nc1cccc2ccc([As](=O)(O)O)cc12	inactive: 94.2%
CCN(N=Nc1nonc1N)c1nonc1N	inactive: 92.6%
O=[N+]([O-])c1cc([N+](=O)[O-])c(CCN2CCOCC2)c([N+](=O)[O-])c1	inactive: 87.7%
CCOP(=O)(Nc1ccccc1)OCC	inactive: 97.1%
Cc1cc(SC(NC(=O)c2ccc(F)cc2)C(Cl)(Cl)Cl)ncn1 (configuration not stated)	inactive: 87.3%
CN(C(=O)Cc1ccc(Cl)c(Cl)c1)[C@H]1CCCC[C@@H]1N1CCCC1	inactive: 111%
O=P(Nc1nc2ccc(Cl)cc2s1)(c1ccccc1)c1ccccc1	inactive: 102%
O=C(O)c1ccccc1[As](=O)(O)O	inactive: 93.6%
CC(=O)Nc1ccc([As](=O)(O)O)cc1	inactive: 91.5%
Oc1ccccc1CNc1ccccn1	inactive: 94.3%
Cc1c2non([O-])c-2c(C)[n+](=O)[n+]1[O-]	inactive: 123%
